# Experimental data from PMC2848328 (The Journal of biological chemistry, 2006).
# Molecular target: T1, AMAN-2 (F58H1.1; Golgi α-mannosidase II) (Caenorhabditis elegans, UniProt Q2PJ74)
# T1 sequence (Q2PJ74 125-1145): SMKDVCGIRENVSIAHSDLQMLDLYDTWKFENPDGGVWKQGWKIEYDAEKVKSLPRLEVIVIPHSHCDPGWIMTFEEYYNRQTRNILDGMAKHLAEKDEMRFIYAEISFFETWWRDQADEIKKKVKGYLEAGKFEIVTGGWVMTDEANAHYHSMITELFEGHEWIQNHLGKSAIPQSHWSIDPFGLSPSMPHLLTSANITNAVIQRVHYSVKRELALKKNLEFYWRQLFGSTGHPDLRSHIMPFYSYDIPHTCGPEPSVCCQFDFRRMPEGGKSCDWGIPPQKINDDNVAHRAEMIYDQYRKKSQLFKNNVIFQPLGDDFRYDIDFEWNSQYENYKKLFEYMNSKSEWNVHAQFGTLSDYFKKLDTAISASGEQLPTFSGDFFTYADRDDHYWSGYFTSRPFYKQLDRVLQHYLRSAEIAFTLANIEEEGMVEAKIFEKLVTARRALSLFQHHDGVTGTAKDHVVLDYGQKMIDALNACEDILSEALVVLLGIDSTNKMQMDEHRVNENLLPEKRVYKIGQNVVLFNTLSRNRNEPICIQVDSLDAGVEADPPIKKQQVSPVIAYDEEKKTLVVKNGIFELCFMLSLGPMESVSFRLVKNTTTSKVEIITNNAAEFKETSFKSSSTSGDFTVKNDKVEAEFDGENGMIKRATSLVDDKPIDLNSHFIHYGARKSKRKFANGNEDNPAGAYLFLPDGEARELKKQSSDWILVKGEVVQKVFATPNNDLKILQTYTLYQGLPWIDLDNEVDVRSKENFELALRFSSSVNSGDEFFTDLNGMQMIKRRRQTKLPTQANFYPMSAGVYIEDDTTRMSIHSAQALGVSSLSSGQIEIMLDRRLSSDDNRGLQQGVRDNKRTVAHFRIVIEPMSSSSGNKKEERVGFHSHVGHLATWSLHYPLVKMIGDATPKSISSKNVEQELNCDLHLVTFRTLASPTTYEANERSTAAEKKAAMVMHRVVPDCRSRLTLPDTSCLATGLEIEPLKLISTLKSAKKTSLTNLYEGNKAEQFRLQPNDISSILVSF
# Experiment: inhibition of p-nitrophenyl-α-mannoside hydrolysis, A405
# Assay type: biochemical
# Details: read-out: % inhibition at 10 nM
smiles,measurement,value
O[C@H]1[C@H]2[C@H](O)CCCN2C[C@H]1O [swainsonine],inhibition at 0.01 µM,~45%
